Test results reported in patent US6677333B1, “2H-phthalazin-1-one derivatives and drug containing its derivatives as active ingredient” (Ono Pharmaceutical Co., Ltd., priority 1999, dated 2004).

Chains of the proteins cited; added tags and fusions are not shown.
UniProt P09874, whole entry: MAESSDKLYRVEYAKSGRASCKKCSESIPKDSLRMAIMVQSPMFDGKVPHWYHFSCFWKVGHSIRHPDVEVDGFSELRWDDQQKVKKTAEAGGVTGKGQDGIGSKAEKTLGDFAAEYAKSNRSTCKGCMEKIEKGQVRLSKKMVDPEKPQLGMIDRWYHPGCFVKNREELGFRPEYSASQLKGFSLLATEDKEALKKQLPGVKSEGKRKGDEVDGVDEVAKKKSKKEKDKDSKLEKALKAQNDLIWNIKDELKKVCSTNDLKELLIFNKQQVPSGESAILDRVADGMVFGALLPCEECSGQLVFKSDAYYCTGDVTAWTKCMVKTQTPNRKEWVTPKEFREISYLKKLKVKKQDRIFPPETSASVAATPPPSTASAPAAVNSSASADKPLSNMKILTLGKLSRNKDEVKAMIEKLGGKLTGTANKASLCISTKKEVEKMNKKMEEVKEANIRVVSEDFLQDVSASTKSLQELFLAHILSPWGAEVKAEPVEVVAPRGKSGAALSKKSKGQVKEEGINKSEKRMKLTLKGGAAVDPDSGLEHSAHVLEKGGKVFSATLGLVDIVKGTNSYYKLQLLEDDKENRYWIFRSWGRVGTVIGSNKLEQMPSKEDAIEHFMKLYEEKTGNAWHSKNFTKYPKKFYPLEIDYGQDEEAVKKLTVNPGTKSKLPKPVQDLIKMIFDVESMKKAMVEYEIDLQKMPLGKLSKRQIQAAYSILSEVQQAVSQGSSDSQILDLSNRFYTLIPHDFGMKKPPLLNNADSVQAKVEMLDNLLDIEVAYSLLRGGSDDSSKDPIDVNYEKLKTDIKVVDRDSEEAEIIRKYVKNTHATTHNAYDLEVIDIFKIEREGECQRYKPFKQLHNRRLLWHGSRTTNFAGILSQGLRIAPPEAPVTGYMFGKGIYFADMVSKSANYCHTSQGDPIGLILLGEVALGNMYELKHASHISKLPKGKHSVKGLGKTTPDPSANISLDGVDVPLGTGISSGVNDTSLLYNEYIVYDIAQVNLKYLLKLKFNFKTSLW

Biological target: PARP (Homo sapiens, UniProt P09874)
Experiment: Enzyme assay in vitro (PARP inhibitory activity)
Conditions: PARP (TREVIGEN), activated DNA, 10 minutes reaction, 100% of control = distilled water; example 5 tested as trifluoro acetate; tested form: hydrochloride and methanesulfonate both
Protocol: The below procedure was carried out with 96 well plate. The reaction mixture contained 50 mM Tris/HCl (pH 8.0, WAKO), 10 mM MgCl2, 5 mM dithiothreitol (sigma), and 0.5 mg/mL activated DNA in 80 μL. The 10 μL of test compound was added to the reaction mixture and the reaction was started by addition of 10 μL of […] PARP (TREVIGEN). The reaction was terminated at 10 minutes by addition of 100 μL of 20% trichloroacetic acid. The reaction product was collected on a glass fiber filter (GF/C, PACKARD). The radioactivity was measured by topcount (PACKARD). Inhibitory activity of the compound was represented by 50% inhibitory concentration (IC50) calculated 100% of control (distilled water).

IC50: 88 nM
Compound: O=C(CCCCN1CCCC1)Nc1cccc(-c2n[nH]c(=O)c3ccccc23)c1
